Assay [1] deals with T1, Human EphA2 (Ecto) (Human, UniProt P29317 24-537).
T1 construct: extracellular domain
Put plainly: FP competition; competitor Compound 12. How it is done: (§1) Peptides without a fluorescent tag were tested in competition with a peptide with a fluorescent tag and a known Kd (Table 2). Peptides were diluted to an appropriate concentration in assay buffer as described in the direct binding assay with a maximum of 5% DMSO, then serially diluted 1 in 2. Five μL of diluted peptide was added to the plate followed by 10 μL of human or mouse EphA2 (Table 1) at a fixed concentration which was dependent on the fluorescent peptide used (Table 2), then 10 μL fluorescent peptide added. Measurements were conducted as for the direct binding assay, however the gain was determined prior to the first measurement.

By UniProt entry, the sequences of proteins in these tests, tags left out. Residues count along the entry.
UniProt P29317, 24-537: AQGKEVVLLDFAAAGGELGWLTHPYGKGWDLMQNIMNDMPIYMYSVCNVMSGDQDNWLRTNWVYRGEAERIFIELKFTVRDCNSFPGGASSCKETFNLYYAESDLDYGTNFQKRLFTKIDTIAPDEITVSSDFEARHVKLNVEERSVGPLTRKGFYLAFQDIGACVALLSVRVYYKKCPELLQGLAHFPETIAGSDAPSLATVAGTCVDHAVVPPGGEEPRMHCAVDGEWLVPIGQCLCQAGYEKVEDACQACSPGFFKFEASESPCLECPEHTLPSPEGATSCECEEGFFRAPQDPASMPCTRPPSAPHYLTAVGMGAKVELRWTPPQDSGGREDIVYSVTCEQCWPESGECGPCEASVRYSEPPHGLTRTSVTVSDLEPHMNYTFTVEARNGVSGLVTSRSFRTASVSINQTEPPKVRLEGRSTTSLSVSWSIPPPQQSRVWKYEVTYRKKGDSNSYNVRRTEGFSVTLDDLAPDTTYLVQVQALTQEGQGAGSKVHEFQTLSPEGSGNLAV

In assay [2] the target is T1, Human EphA2 (Ecto). The assay is described as follows: FP competition; competitor Compound 66. The procedure:
as §1

The target in assay [3] is T1, Human EphA2 (Ecto). Put plainly: FP competition; competitor Compound 1. How it is done:
as §1

The target of assay [4] is T1, Human EphA2 (Ecto). Put plainly: FP competition; competitor Compound 18. How it is done:
as §1

With ACVPQGIWCALRYEPCA (TBMB on the 3 Cys) [Compound 65], the figures for the Ki in the assay with Human EphA2 (Ecto) [1] and with Human EphA2 (Ecto) [2] were 229 nM and 293 nM, respectively. For the molecule ACPWGPAWCPVRSCA (TBMB on the 3 Cys) [Compound 50], the Ki with Human EphA2 (Ecto) [2] came out at 314 nM. On the same count and under the same terms, with ACTQNDWLCSLGWTCA (TBMB on the 3 Cys) [Compound 31] the figure was 152 nM. Take ACPWGPAWCPVNRPGCA (TBMB on the 3 Cys) [Compound 44]: the Ki came out at 164 nM with Human EphA2 (Ecto) [3], 128 nM with Human EphA2 (Ecto) [1] and 191 nM in the assay with Human EphA2 (Ecto) [2]. Take ACMNDWLCQLGWKCA (TBMB on the 3 Cys) [Compound 28]: in the assay with Human EphA2 (Ecto) [2], the inhibitory constant (Ki) worked out at 113 nM. Same read-out and setting: with ACPWGPAWCPVNGARCA (TBMB on the 3 Cys) [Compound 43] the figure was 430 nM. As to ACPWGPAWCPVKPTCA (TBMB on the 3 Cys) [Compound 51], the Ki with Human EphA2 (Ecto) [2] came out at 318 nM. Take ACPWGPAWCPVSRVCA (TBMB on the 3 Cys) [Compound 49]: the Ki in the assay with Human EphA2 (Ecto) [2] was 428 nM.

For ACPWGPAWCPVRNPCA (TBMB on the 3 Cys) [Compound 48], in the assay with Human EphA2 (Ecto) [2], the Ki was found to be 284 nM. Same read-out and setting: with ACRVSPEYCPFGPTWCA (TBMB on the 3 Cys) [Compound 35] the figure was 43.2 nM; with ACRVSPEYCPFGPDWCA (TBMB on the 3 Cys) [Compound 40], 55.4 nM.

Regarding ACRVSPEYCPFGPLWCA (TBMB on the 3 Cys) [Compound 39], the Ki in the assay with Human EphA2 (Ecto) [2] was 32.1 nM.

Take ACPWGPNWCPVNRPGCA (TBMB on the 3 Cys) [Compound 47]: the Ki with Human EphA2 (Ecto) [2] was 78.3 nM. In the case of ANDVTCPWGPFWCPVNRPGCA (TBMB on the 3 Cys) [Compound 61], the Ki worked out at 2.93 nM with Human EphA2 (Ecto) [4] and 7.3 nM in the assay with Human EphA2 (Ecto) [2]. As for ADHACPWGPFWCPVNRPGCA (TBMB on the 3 Cys) [Compound 56], the Ki in the assay with Human EphA2 (Ecto) [4] came out at 14.4 nM; with Human EphA2 (Ecto) [2], 5.87 nM. With ACMNDWLCELGWTCA (TBMB on the 3 Cys) [Compound 29], the Ki in the assay with Human EphA2 (Ecto) [2] was determined as 134 nM.

Values taken from patent US20200338203A1 (Bicycle, published 2020).
